Test: Cataleptic activity in rats, compound alone without methylphenidate
Details: rat, in vivo, ip

Q: Which ED50 does the source give for `Cc1nc2n(c(=O)c1CCN1CCC(c3noc4cc(F)ccc34)CC1)CCCC2` [Risperidone, reference compound] here?
A: 1.2 mg/kg

Reference: patent publication US7456192B2, “3β-amino azabicyclooctane heteroaromatic amid derivatives preparation method and therapeutic uses thereof” (Pierre Fabre Medicament, priority 2001, dated 2008)
